Patent US9974867B2, “Cytotoxic benzodiazepine derivatives” (priority 2014, dated 2018)
“Also recorded” adds a separate entry of the source. Like-named read-outs stand apart in the source and are kept apart here.

How the values were obtained:
[1] = test system: Hec-1b endometrial xenografts; experiment: Antitumor activity of single dose against Hec-1b endometrial xenografts (Example 14); assay type: in vivo, SCID mice
Method: (§1) Female CB.17 SCID mice, 6 weeks old, were received from Charles River Laboratories. One cohort of mice were inoculated with 1×10^7 NCI-H2110 tumor cells suspended in 0.1 ml 50% matrigel/serum free medium by subcutaneous injection in the right flank. The second cohort of mice were inoculated with 1×10^7 Hec-1b tumor cells suspended in 0.1 ml serum free medium by subcutaneous injection in the right flank. The third cohort of mice were inoculated with 1×10^7 Ishikawa tumor cells suspended in 0.1 ml 50% matrigel/serum free medium by subcutaneous injection in the right flank. When tumor volumes reached approximately 100 mm^3 (NCI-H2110 on day 7, Hec-1b on day 7, and Ishikawa on day 17 post inoculation), animals were randomized based on tumor volume into groups of 6 mice each.
(§2) For all experiments, tumor size was measured twice to three times weekly in three dimensions using a caliper. The tumor volume was expressed in mm^3 using the formula V=Length×Width×Height×½. A mouse was considered to have a partial regression (PR) when tumor volume was reduced by 50% or greater, complete tumor regression (CR) when no palpable tumor could be detected. Tumor volume was determined by StudyLog software.
(§3) Tumor growth inhibition (T/C Value) was determined using the following formula: T/C (%)=Median tumor volume of the treated/Median tumor volume of the control×100.
(§4) Tumor volume was determined simultaneously for treated (T) and the vehicle control (C) groups when tumor volume of the vehicle control reached predetermined size of 1000 mm^3. The daily median tumor volume of each treated group was determined, including tumor-free mice (0 mm^3). According to NCI standards, a T/C≤42% is the minimum level of anti-tumor activity. A T/C<10% is considered a high anti-tumor activity level.

[2] = test system: NCI-H2110 NSCLC xenografts; experiment: Antitumor activity of single dose against NCI-H2110 NSCLC xenografts (Example 10); assay type: in vivo, SCID mice
Method: (§5) Female CB.17 SCID mice, 6 weeks old, were received from Charles River Laboratories. Mice were inoculated with 1×10^7 NCI-H2110 tumor cells suspended in 0.1 ml 50% matrigel/serum free medium by subcutaneous injection in the right flank. When tumor volumes reached approximately 100 mm3 (day 7 post inoculation), animals were randomized based on tumor volume into 4 groups of 6 mice each.
as §2, with “Tumor” for “For all experiments, tumor”, “mm3” for “mm^3”
as §3
as §4, with “mm3” for “mm^3.”, “mm3)” for “mm^3).”

[3] = Pharmacokinetics of single dose in CD-1 mice; assay type: in vivo; settings: single IV 2.5 mg/kg based on Ab, total Ab and intact conjugate by ELISA
Method: Female CD-1 mice, 7 weeks old, were received from Charles River Laboratories. […] Each mouse received a dose of 2.5 mg/kg based on Ab. The dose and injected volume were individualized on the basis of the body weight of each mouse. Injections were carried out using a 1.0 mL syringe fitted with a 27 gauge, ½ inch needle. […] At each time point (from 0 to 21 days), blood was collected from all three mice in one group. Groups were bled in turn; so that the mice in the set were not bled more than two times in a 24-hour period. At the final time point, 28 days post-administration, all mice were included for sample collection. Blood samples were centrifuged to separate the plasma. 30 μl plasma was transferred to individual labeled microcentrifuge tubes for each sample and time point, and then stored frozen at −80° C. to allow subsequent analysis by ELISA to determine concentrations of total Ab (both unconjugated Ab and intact ADC) and intact conjugate.

NCI-H2110 cells = experiment: Cytotoxicity assay (WST-8, 5 days), NCI-H2110; assay type: cell-based
Method: (§6) KB cells (buccal epithelial tumor), grown in EMEM (ATCC) supplemented with heat-inactived 10% FBS (Life Technologies) and 0.1 mg/ml gentamycin (Life Technologies), were washed once in PBS and removed with 0.05% trypsin-EDTA (Life Technologies). Other cells tested were NCI-H2110 (NSCLC) and T47D (breat epthelial) grown in RPMI-1640 (LifeTechnologies) supplemented with heat-inactived 10% FBS (Life Technologies) and 0.1 mg/ml gentamycin (Life Technologies). T47D media also was supplemented with 0.2 IU/ml bovine insulin. All cells were resuspended in growth media (see above) to neutralize trypsin and counted using a hemacytometer. 100 μl/ml of 1000 KB cells/well or 2000 T47D and NCI-H2110 cells/well were added to wells containing ADC or media only and incubated in a 37° C. incubator with 5% CO2 for 5 days with and without 1 μM blocking anti-FOLR1 antibody (M9346A). Total volume is 200 μl/well. The starting concentration of each conjugate on KB cells was 3.5e-9 M and for T47D and NCI-H2110 cells, the starting concentration of each conjugate was 3.5e-8 M. After incubation, cell viability was analyzed by addition of 20 μl/well WST-8 (Dojindo) and allowed to develop for 2 hr. Absorbance was read on a plate reader at 450 and 620 nm. Absorbances at 620 nm were subtracted from absorbances at 450 nm. Background in wells containing media only was further subtracted from corrected absorbances and surviving fraction (SF) of untreated cells was calculated in Excel. An XY graph of ADC concentration (M) vs. SF was created using Graph Pad Prism.

[4] = test system: 300.19 cells expressing recombinant FOLR1 (FR1#14) mixed with parental cells; experiment: Bystander killing activity (Cell Titer Glo); assay type: cell-based, mouse; settings: 1 e-10 M and 4 e-10 M, 4 days
Method: Both 300.19 cells (mouse) expressing recombinant FOLR1(FR1#14) or no expression vector (parental) were counted on a hemacytometer. 50 μl/ml of 1000 FR1#14 cells/well were added to wells containing the conjugate or media only, 50 μl/ml of 2000 parental cells/well were added to wells containing the conjugate or media only and both FR1#14 and parental cells were added together to wells containing ADC or media only. All plates were incubated in a 37° C. incubator with 5% CO2 for 4 days. Total volume was 150 μl/well. After incubation, cell viability was analyzed by addition of 75 μl/well Cell Titer Glo (Promega) and allowed to develop for 45 min Luminescence was read on a luminometer and background in wells containing media only was subtracted from all values. A bar graph of the average of each cell treatment was graphed using Graph Pad Prism.

KB (cervical cancer) = experiment: WST-8-based in vitro cytotoxicity assay (another experiment), KB; assay type: cell-based
Method: (§7) In another experiment, the ability of the conjugate to inhibit cell growth was measured using a WST-8-based in vitro cytotoxicity assay. Cells in 96-well plates (typically, 1×10^3 per well) were treated with the conjugate at various concentrations in an appropriate cell culture medium with a total volume of 0.2 ml. Control wells containing cells and the medium but lacking test compounds, and wells containing medium only, were included in each assay plate. The plates were incubated for 4 to 6 days at 37° C. in a humidified atmosphere containing 6% CO2. WST-8 reagent (10%, volume/volume; Dojindo Molecular Technologies) was then added to the wells, and the plates were incubated at 37° C. for 2 to 6 hours depending on a cell line. Then, the absorbance was measured on a plate reader spectrophotometer in the dual-wavelength mode 450 nm/620 nm, and the absorbance at the 620 nm (nonspecific light scattering by cells) was subtracted. The resulting OD450 values were utilized to calculate apparent surviving fractions of cells using GraphPad Prism v4 (GraphPad software, San Diego, Calif.). The apparent surviving fraction of the cells in each well was calculated by first correcting for the medium background absorbance and then dividing each value by the average of the values in the control wells (non-treated cells). Dose response curves were generated by non-linear regression using a sigmoidal curve fit with variable slope in Graph Pad Prism. IC50 (inhibitory concentration 50%) was generated by the software.

[5] = test system: NCI-H2110 NSCLC xenografts; experiment: Antitumor activity of single dose against NCI-H2110 NSCLC xenografts (Example 14); assay type: in vivo, SCID mice
Method: as §1, §2, §3, §4

[6] = test system: NCI-H2110 NSCLC xenografts; experiment: Antitumor activity of single dose against NCI-H2110 NSCLC xenografts (Example 4); assay type: in vivo, SCID mice
Method: as §5, with “mm^3” for “mm3”, “3” for “4”
as §2, with “Tumor” for “For all experiments, tumor”, “software. Tumor growth inhibition (T/C Value) was determined using the following formula: T/C (%)=Median tumor volume of the treated/Median tumor volume of the control×100.” for “software.”
as §4

[7] = test system: Ishikawa endometrial xenografts; experiment: Antitumor activity of single dose against Ishikawa endometrial xenografts (Example 14); assay type: in vivo, SCID mice
Method: as §1, §2, §3, §4

[8] = test system: NCI-H2110 (non-small cell lung carcinoma); experiment: WST-8-based in vitro cytotoxicity assay (another experiment), NCI-H2110; assay type: cell-based
Method: as §7

[9] = test system: Ishikawa (endometrial cancer); experiment: WST-8-based in vitro cytotoxicity assay (another experiment), Ishikawa; assay type: cell-based
Method: as §7

KB cells = experiment: Cytotoxicity assay (WST-8, 5 days), KB; assay type: cell-based
Method: as §6

[10] = single IV 10 μg/kg based on drug
[11] = single IV 30 μg/kg based on drug
[12] = single IV 5 μg/kg based on compound 1d
[13] = single IV 3 μg/kg based on drug
[14] = single IV 5 μg/kg based on drug

B1: huMOV19-sulfo-SPDB-1d (conjugate, chains of the INN, looked up)
heavy: QVQLVQSGAEVVKPGASVKISCKASGYTFTGYFMNWVKQSPGQSLEWIGRIHPYDGDTFYNQKFQGKATLTVDKSSNTAHMELLSLTSEDFAVYYCTRYDGSRAMDYWGQGTTVTVSSASTKGPSVFPLAPSSKSTSGGTAALGCLVKDYFPEPVTVSWNSGALTSGVHTFPAVLQSSGLYSLSSVVTVPSSSLGTQTYICNVNHKPSNTKVDKKV[human IgG1 Fc cut from this listing]
light: DIVLTQSPLSLAVSLGQPAIISCKASQSVSFAGTSLMHWYHQKPGQQPRLLIYRASNLEAGVPDRFSGSGSKTDFTLTISPVEAEDAATYYCQQSREYPYTFGGGTKLEIKRTVAAPSVFIFPPSDEQLKSGTASVVCLLNNFYPREAKVQWKVDNALQSGNSQESVTEQDSKDSTYSLSSTLTLSKADYEKHKVYACEVTHQGLSSPVTKSFNRGEC
modifications: sulfo-SPDB linker payload 1d
[1]; [10]
  T/C: 22%
  anti-tumor activity level: active
[1]; [11]
  T/C: 13%
  anti-tumor activity level: active
  complete regressions (CRs): ⅙
  partial regressions (PRs): ⅙
[2]; single IV 3 μg/kg based on compound 1d
  anti-tumor activity level: active
[2]; [12]
  anti-tumor activity level: highly active
[3]
  release of benzodiazepine compound from conjugate in plasma: slow time-dependent release of benzodiazepine compound
NCI-H2110 cells; NCI-H2110 cells
  cytotoxic potency: highly potent
NCI-H2110 cells; with 1 μM blocking anti-FOLR1 antibody (M9346A), read-out: IC50 NCI-H2110 +Block
  IC50: 2 nM
NCI-H2110 cells; without blocking antibody, read-out: IC50 NCI-H2110 −Block
  IC50: 0.3 nM
[4]
  bystander killing of neighboring antigen-negative cells: strong bystander killing activity; also recorded: strong cytotoxic effect on the neighboring antigen-negative cells
KB (cervical cancer)
  activity against the cell line: active
KB (cervical cancer); + unmodified huMOV19 (1 μM)
  IC50: 1 nM
KB (cervical cancer); conjugate alone
  IC50: 0.01 nM
[5]; single IV 1 μg/kg based on drug
  anti-tumor activity level: inactive
[5]; [13]
  T/C: 12%
  anti-tumor activity level: active
[5]; [14]
  T/C: 4%
  anti-tumor activity level: highly active
  complete regressions (CRs): 3/6
  partial regressions (PRs): 6/6
[6]; FIG. 2
  lowest dose at which activity was observed: 5 µg/kg
[6]; multiple doses, FIG. 2
  tumor regression: significant tumor regression
[6]; [12]
  anti-tumor activity level: highly active
[6]; single IV 25 μg/kg based on compound 1d
  anti-tumor activity level: highly active
[7]; [10]
  T/C: 23%
  anti-tumor activity level: active
[7]; [11]
  T/C: 11%
  anti-tumor activity level: active
[8]; NCI-H2110
  activity against the cell line: active
[8]; NCI-H2110, + unmodified huMOV19 (1 μM)
  IC50: 1 nM
[8]; NCI-H2110, conjugate alone
  IC50: 0.1 nM
[9]
  activity against the cell line: active
[9]; + unmodified huMOV19 (1 μM)
  IC50: 0.4 nM
[9]; conjugate alone
  IC50: 0.04 nM
KB cells; KB cells
  cytotoxic potency: highly potent
KB cells; with 1 μM blocking anti-FOLR1 antibody (M9346A), read-out: IC50 KB +Block
  IC50: 0.6 nM
KB cells; without blocking antibody, read-out: IC50 KB −Block
  IC50: 0.008 nM
